Results published in patent US8163894B2, “DNA for eukaryotic expression of CymR” (National Research Council of Canada, priority 2001, dated 2012).

Assay: Water solubility of effectors
Type: physicochemical
Excerpt: The need to solubilize p-cumate (p-cumic acid) in organic solvent (e.g. ethanol or dimethyl formamide) is a great disadvantage. The present invention thus provides water-soluble effectors as well as possibly expanding the spectrum of inducers beyond p-cumate. At first, cumic alcohol, 4-methyl benzylalcohol, ethyltoluene, indole-2-carboxylic acid, indole-3-carboxylic acid, benzoic acid, 3- and 4-hydroxybenzoic acids, 3,4-dihyroxybenzoic acid and 2,4-dihydrobenzoic acid were tried. […] In this P2-cymlacZ fusion system, the threshold cumate concentration for induction is in the order of 0.002 millimolar (mM).
Di-methyl p-aminobenzoic acid (DM PABA) and its sodium salt, DM PABA Na^+, Na^+ cumate, Na^+ trimethyl cumate, Na^+ benzoate, Na+toluate, and Na+ethylbenzoate were tested as possible inducers at various concentrations. […] The sodium salt of cumic acid was also tested vs cumic acid (taken as cumate).

CN(C)c1ccc(C(=O)O)cc1 [DM PABA, Di-methyl p-aminobenzoic acid]
water solubility: water-soluble
